Yeast UUG start: alters start codon recognition fidelity in yeast | S. cerevisiae UUG-firefly luciferase reporter, luminescence/redox ratio | activity score, % at 18.7 µM | hit rate 0.13% among 350,000 | AID 602363;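 active means replicate mean at a twofold rise or more, about +100% in these data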;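 further: firefly luciferase made from a UUG start codon reports start codon fidelity; reporter light over untreated wells divided by growth signal over untreated wells; some hits fall short of that in this replicate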
MC4R ag barr: activates human MC4R beta-arrestin recruitment. U2OS MC4R beta-arrestin complementation, luminescence; percent of melanotan II response, DMSO zero. activation, % at 8.9 µM. hit rate 0.98% among 360,000. AID 540308;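 active = activation above a per-plate cutoff, the mean activation of sample wells on that plate plus 3 SD, cut at about 8% in these data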
NALP1 inh: inhibitors of NALP1 inflammasome in yeast; inhibition, % at 10 µM; AID 2071; S. cerevisiae NALP1/ASC/caspase-1 growth, X-gal OD620, 72 h; hit rate 0.61% among 280,000; in the data active = inhibition mostly above about 24%, no sharp cut-off; inactive = mostly below about 32%
MC4R antagonist: antagonists of human melanocortin 4 receptor (MC4R); P32245; MC4R-expressing cells, MTII-stimulated cAMP, LANCE TR-FRET; inhibition, % at 6.5 µM; hit rate 0.48% among 360,000;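 active = inhibition above its plate's cutoff, the mean of tested wells on that plate plus 3 SD, cut at about 29% in these data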;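 also: 0% = Melanotan II alone and 100% = Melanotan II plus saturating MCL0020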
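Material – human MC4R-expressing U2OS cells · Repeats – no replicates · Detection – TR-FRET with Eu-cAMP and labeled anti-cAMP, 671 nm · Times – compound 30 min, challenge 1 h, detection 1 h · Compound – single nominal compound dose of 6.5 µM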
ALR H2O2 inh: human ALR oxidase inhibition via reduced H2O2; P55789; 290,000 tested, 3.8% active; inhibition, % (no concentration beside the values); purified ALR, DTT oxidation, H2O2 HRP-luminol luminescence; AID 485317;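 active = mean and each replicate at 75% or more; inconclusive = only one of the two met; inactive = neither met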;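 note: stock transfer was 7.5 nL into about 7.5 µL; 0% = neutral wells and 100% = wells with inactivated enzyme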
HDAC3 inh: human HDAC3 inhibition. O15379. AID 2718. inhibition, % at 8.3 µM. recombinant HDAC3, fluorogenic peptide/trypsin coupled, fluorescence. hit rate 0.15% among 320,000; in the data active = inhibition above about 26%, passing the limit was not always enough; inconclusive = no clear call, values can overlap the other calls
An asterisk follows results filed as active. Hits are enriched below; roughly 4.2% of the tested compounds scored in any of these assays.

What do the screens show for `Cc1noc(C)c1NC(=O)Nc1ccc2c(c1)C(=O)N([C@@H](C)CO)C[C@@H](C)[C@@H](CN(C)S(=O)(=O)c1ccccc1)OCCCC[C@@H](C)O2`?
Yeast UUG start: -0.6

How did Cc1cc(C)cc(NC(=S)Nc2ccccn2)c1 do in these assays?
MC4R ag barr: 1.4; NALP1 inh: 29.6; MC4R antagonist: 2.6; ALR H2O2 inh: 97.2*; HDAC3 inh: 1.9

What do the screens show for `COc1ccccc1NC(=S)Nc1ccccn1`?
Yeast UUG start: -23.9; MC4R ag barr: -0.9; NALP1 inh: 24.2; MC4R antagonist: -4.6; ALR H2O2 inh: 81.9*; HDAC3 inh: 2.5

How did COc1ccccc1NC(=O)C(=O)Nc1ccccn1 do in these assays?
Yeast UUG start: -32.1; MC4R ag barr: 1.2; NALP1 inh: 24.1; MC4R antagonist: 5.1; ALR H2O2 inh: -6.3; HDAC3 inh: -8.3

Results for COCC#Cc1cnc2c(c1)C(=O)N([C@@H](C)CO)C[C@@H](C)[C@@H](CN(C)C(=O)CN1CCOCC1)O2 ?
Yeast UUG start: -5.9

Results for C[C@H]1CN([C@@H](C)CO)C(=O)c2cc(Br)cnc2O[C@H]1CN(C)Cc1ccncc1 ?
Yeast UUG start: -4.0

What do the screens show for `N#Cc1cn(Cc2ccccc2)c2ccccc12`?
Yeast UUG start: -15.8; MC4R ag barr: -1.1; NALP1 inh: 27.4*; MC4R antagonist: -1.6; ALR H2O2 inh: -0.2; HDAC3 inh: 2.4

How did N#Cc1ccccc1Cn1cc(C#N)c2ccccc21 do in these assays?
Yeast UUG start: -1.4; MC4R ag barr: 3.0; NALP1 inh: 21.0; MC4R antagonist: -2.8; ALR H2O2 inh: -16.1; HDAC3 inh: 4.3

What do the screens show for `CCCN1C=CC(=CC=C(C#N)C#N)C=C1`?
Yeast UUG start: 18.9; MC4R ag barr: 1.0; NALP1 inh: 16.8; MC4R antagonist: -20.3; ALR H2O2 inh: 98.8*; HDAC3 inh: inconclusive

Results for CCCCCCN1C=CC(=C/C=C(\C#N)C(=O)OCC)C=C1 ?
Yeast UUG start: 12.4; MC4R ag barr: 0.9; NALP1 inh: -0.6; MC4R antagonist: -8.8; ALR H2O2 inh: 5.1; HDAC3 inh: -3.2

What do the screens show for `C=CCN1C=CC(=CC=C(C#N)C#N)C=C1`?
Yeast UUG start: 15.9; MC4R ag barr: -1.1; NALP1 inh: -0.3; MC4R antagonist: -25.4; ALR H2O2 inh: 98.6*; HDAC3 inh: 21.2

Results for CCCN1C=CC(=C/C=C(\C#N)C(=O)OCC)C=C1 ?
NALP1 inh: 0.9; ALR H2O2 inh: 99.4*; HDAC3 inh: 30.4*

Results for C=CCN1C=C/C(=C\C=C(C#N)C#N)c2ccccc21 ?
MC4R ag barr: -3.6; NALP1 inh: 15.1; MC4R antagonist: 12.3; HDAC3 inh: 4.8

What do the screens show for `Cc1ccc(NC(=O)C2(C)CCN2C2Cc3ccccc3C2)cc1` (stereo not given)?
Yeast UUG start: -15.1; MC4R ag barr: 8.4*; MC4R antagonist: 3.5

How did CC1(C(=O)Nc2cccc(Oc3ccccc3)c2)CCN1C1Cc2ccccc2C1 (stereo not given) do in these assays?
Yeast UUG start: -5.1; MC4R ag barr: -1.0; MC4R antagonist: 5.2

How did O=C(C[C@@H]1C[C@@H]2c3cc(NC(=O)C4CCOCC4)ccc3O[C@@H]2[C@@H](CO)O1)NCC1CC1 do in these assays?
Yeast UUG start: -2.7

Results for Cc1ccc2nsnc2c1S(=O)(=O)N1CCOCC1 ?
Yeast UUG start: -12.7; MC4R ag barr: -1.6; NALP1 inh: 34.2*; MC4R antagonist: 2.6; ALR H2O2 inh: 98.5*; HDAC3 inh: 4.9

How did CCc1ccc(CNc2ccc(N3CCN(C(C)=O)CC3)cc2)cc1 do in these assays?
Yeast UUG start: -21.0; MC4R ag barr: -0.9; NALP1 inh: 0.5; MC4R antagonist: -7.6; ALR H2O2 inh: 98.9*; HDAC3 inh: -1.7

What do the screens show for `COc1cccc(N2CCN(C(=S)NCc3ccco3)CC2)c1`?
Yeast UUG start: -19.5; MC4R ag barr: 0.6; NALP1 inh: -6.9; MC4R antagonist: -1.2; ALR H2O2 inh: 87.2*; HDAC3 inh: -1.7

Results for CC(=O)N1CCN(c2ccc(NCc3ccc(-c4cccc(Cl)c4)o3)cc2)CC1 ?
Yeast UUG start: -20.8; MC4R ag barr: -2.1; MC4R antagonist: -0.4; ALR H2O2 inh: 85.1*; HDAC3 inh: 3.4

Brought forward from above: 4 entries, followed by the next part.
Results for Cc1ccc2nsnc2c1S(=O)(=O)N1CCOCC1 ?
Yeast UUG start: -12.7; MC4R ag barr: -1.6; NALP1 inh: 34.2*; MC4R antagonist: 2.6; ALR H2O2 inh: 98.5*; HDAC3 inh: 4.9

How did CCc1ccc(CNc2ccc(N3CCN(C(C)=O)CC3)cc2)cc1 do in these assays?
Yeast UUG start: -21.0; MC4R ag barr: -0.9; NALP1 inh: 0.5; MC4R antagonist: -7.6; ALR H2O2 inh: 98.9*; HDAC3 inh: -1.7

What do the screens show for `COc1cccc(N2CCN(C(=S)NCc3ccco3)CC2)c1`?
Yeast UUG start: -19.5; MC4R ag barr: 0.6; NALP1 inh: -6.9; MC4R antagonist: -1.2; ALR H2O2 inh: 87.2*; HDAC3 inh: -1.7

Results for CC(=O)N1CCN(c2ccc(NCc3ccc(-c4cccc(Cl)c4)o3)cc2)CC1 ?
Yeast UUG start: -20.8; MC4R ag barr: -2.1; MC4R antagonist: -0.4; ALR H2O2 inh: 85.1*; HDAC3 inh: 3.4

What do the screens show for `COc1cccc(-c2cc(C(=O)NCc3ccco3)no2)c1`?
Yeast UUG start: -11.2; MC4R ag barr: -2.1; NALP1 inh: 29.2*; MC4R antagonist: -8.4; ALR H2O2 inh: 2.5; HDAC3 inh: 4.8

How did C[C@@H]1CCCCO[C@H](CN(C)S(=O)(=O)c2cn(C)cn2)[C@@H](C)CN([C@H](C)CO)C(=O)c2cc(NC(=O)C3CCCCC3)ccc2O1 do in these assays?
Yeast UUG start: -12.2

How did CCCNC(=O)C[C@H]1CC[C@H]2[C@@H](COc3ccc(NC(=O)c4ccc(OC)cc4)cc3C(=O)N2C)O1 do in these assays?
Yeast UUG start: 3.2

What do the screens show for `CCCNC(=O)C[C@@H]1CC[C@H]2[C@@H](COc3ccc(NC(=O)c4cccc(Cl)c4)cc3C(=O)N2C)O1`?
Yeast UUG start: 3.0

Results for CC(=O)N1CCN(c2ccc(NCc3ccc(C)cc3)cc2)CC1 ?
MC4R ag barr: -2.0; NALP1 inh: 7.7; MC4R antagonist: -7.7; ALR H2O2 inh: 98.8*; HDAC3 inh: 5.7

What do the screens show for `CC(=O)N1CCN(c2ccc(NCc3ccco3)cc2)CC1`?
Yeast UUG start: -25.2; MC4R ag barr: -1.2; MC4R antagonist: -0.1; ALR H2O2 inh: 99.0*; HDAC3 inh: -10.4

Results for O=C(CSc1nccc(=O)[nH]1)Nc1ccc2c(c1)OCCO2 ?
MC4R ag barr: -1.1; NALP1 inh: 8.2; MC4R antagonist: 4.2; ALR H2O2 inh: 98.3*; HDAC3 inh: -1.9

What do the screens show for `O=C(CSc1ccc2c(c1)OCCO2)Nc1cccnc1`?
MC4R ag barr: -3.7; NALP1 inh: -10.9; MC4R antagonist: -3.6; ALR H2O2 inh: 98.7*; HDAC3 inh: -2.6

How did O=C(CSc1nccc(=O)[nH]1)Nc1ccc(Br)c(Cl)c1 do in these assays?
Yeast UUG start: -8.9; MC4R ag barr: 0.1; NALP1 inh: 17.1; MC4R antagonist: -0.5; ALR H2O2 inh: 98.3*; HDAC3 inh: -5.6

How did O=C(CSc1ccc2c(c1)OCCO2)Nc1ccccc1 do in these assays?
Yeast UUG start: -3.4; MC4R ag barr: 1.6; MC4R antagonist: 11.6

What do the screens show for `O=C(CSc1nccc(=O)[nH]1)Nc1ccc(F)c(Cl)c1`?
Yeast UUG start: -8.1; MC4R ag barr: 0.8; NALP1 inh: 10.6; MC4R antagonist: 7.7; ALR H2O2 inh: 99.5*; HDAC3 inh: 1.2

What do the screens show for `C[C@@H]1CN([C@@H](C)CO)C(=O)c2cc(-c3cccnc3)cnc2O[C@H]1CN(C)C(=O)C1CC1`?
Yeast UUG start: -3.5

How did CCn1c2ccccc2c2cc(NC(=O)CSc3nccc(=O)[nH]3)ccc21 do in these assays?
Yeast UUG start: -8.4; MC4R ag barr: -1.0; NALP1 inh: -8.3; MC4R antagonist: 10.5; ALR H2O2 inh: 98.4*; HDAC3 inh: -4.2

Screening data deposited in PubChem by several laboratories.
